This assay has as its target DA receptors in the brain (Rattus norvegicus, UniProt P61169). Description: Block of apomorphine-induced stereotypies in the rat (0-3 scale). To be noted: po, read-out: potency to block apomorphine, ED50 Stereotypies.

Amino acid sequences for entries named in this document (tags omitted).
UniProt P61169, whole entry: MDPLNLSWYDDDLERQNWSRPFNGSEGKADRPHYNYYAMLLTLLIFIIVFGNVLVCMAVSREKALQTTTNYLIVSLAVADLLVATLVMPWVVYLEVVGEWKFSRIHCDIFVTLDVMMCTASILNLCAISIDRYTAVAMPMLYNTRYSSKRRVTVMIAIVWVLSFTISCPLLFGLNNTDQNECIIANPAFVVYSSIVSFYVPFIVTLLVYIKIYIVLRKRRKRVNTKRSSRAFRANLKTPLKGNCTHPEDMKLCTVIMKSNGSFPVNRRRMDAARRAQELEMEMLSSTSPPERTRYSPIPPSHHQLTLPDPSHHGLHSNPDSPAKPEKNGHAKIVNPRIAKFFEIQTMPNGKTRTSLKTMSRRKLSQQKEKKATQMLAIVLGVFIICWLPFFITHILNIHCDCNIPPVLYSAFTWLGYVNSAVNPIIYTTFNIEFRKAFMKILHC

As a reminder, the ED50 is the midpoint of the dose-response relation. Turning to `CCN1CCCC1CNC(=O)c1cc(S(N)(=O)=O)ccc1OC` (stereo not shown) [Sulpiride, reference compound], the ED50 is more than 586 µmol/kg.

These data come from patent US4789683A, “Benzamido-derivatives” (priority 1981, dated 1988).
